Source: US20060094649A1, “Hla-a1,-a2,-a3,-a24,-b7, and-b44 tumor associated antigen peptides and compositions” (priority 2002, published 2006)

Test system: HLA-A3 supertype molecules
Assay: HLA-A3 supertype cross-binding (A*0301, A*1101, A*3101, A*3301, A*6801)

Row | Compound | Number of A3 alleles crossbound (Table 16b, Her2/neu-derived) | Number of A3 alleles crossbound (Table 16c, Mage2/3-derived) | also measured
1 | CC[C@H](C)[C@H](NC(=O)[C@H](Cc1ccccc1)NC(=O)[C@H](CC(C)C)NC(=O)[C@@H](NC(=O)[C@H](CCC(N)=O)NC(=O)[C@@H](NC(=O)[C@@H](N)Cc1c[nH]cn1)[C@@H](C)O)C(C)C)C(=O)N[C@@H](C)C(=O)N[C@@H](CCCCN)C(=O)O [compound 54] | – | – | Number of A3 alleles crossbound (Table 16a, CEA-derived): 4
2 | CC(C)C[C@H](NC(=O)[C@H](CC(N)=O)NC(=O)[C@H](CO)NC(=O)[C@@H](NC(=O)[C@@H](N)Cc1ccccc1)C(C)C)C(=O)N[C@@H](C)C(=O)N[C@H](C(=O)NCC(=O)N[C@@H](CCCNC(=N)N)C(=O)O)[C@@H](C)O [compound 55] | – | – | Number of A3 alleles crossbound (Table 16a, CEA-derived): 4
3 | CC[C@H](C)[C@H](NC(=O)CNC(=O)[C@H](Cc1ccccc1)NC(=O)[C@@H](NC(=O)CN)C(C)C)C(=O)N[C@@H](CC(C)C)C(=O)N[C@H](C(=O)N[C@@H](CCCCN)C(=O)N[C@@H](CCCNC(=N)N)C(=O)O)[C@@H](C)CC [compound 56] | 3 | – | –
4 | CC[C@H](C)[C@H](NC(=O)CNC(=O)[C@H](Cc1ccccc1)NC(=O)[C@@H](NC(=O)[C@@H](N)C(C)C)C(C)C)C(=O)N[C@@H](CC(C)C)C(=O)N[C@H](C(=O)N[C@@H](CCCCN)C(=O)N[C@@H](CCCNC(=N)N)C(=O)N[C@@H](CCCNC(=N)N)C(=O)O)[C@@H](C)CC [compound 58] | 4 | – | –
5 | CC[C@H](C)[C@H](NC(=O)CNC(=O)[C@H](Cc1ccccc1)NC(=O)[C@@H](NC(=O)[C@@H](N)C(C)C)C(C)C)C(=O)N[C@@H](CC(C)C)C(=O)N[C@H](C(=O)N[C@@H](CCCCN)C(=O)N[C@@H](CCCCN)C(=O)N[C@@H](CS)C(=O)O)[C@@H](C)CC [compound 59] | 3 | – | –
6 | CC[C@H](C)[C@H](NC(=O)[C@@H](N)CCCCN)C(=O)N[C@@H](CCCNC(=N)N)C(=O)N[C@@H](CCCCN)C(=O)N[C@@H](Cc1ccc(O)cc1)C(=O)N[C@H](C(=O)N[C@@H](CCSC)C(=O)N[C@@H](CCCNC(=N)N)C(=O)N[C@@H](CCCCN)C(=O)O)[C@@H](C)O [compound 61] | 1 | – | –
7 | CC[C@H](C)[C@H](NC(=O)[C@@H](NC(=O)[C@@H](NC(=O)[C@H](CO)NC(=O)[C@H](Cc1ccccc1)NC(=O)[C@H](CO)NC(=O)[C@@H](N)CO)[C@@H](C)O)[C@@H](C)O)C(=O)N[C@@H](CC(N)=O)C(=O)N[C@@H](Cc1ccc(O)cc1)C(=O)O [compound 76] | – | 1 | –

Now from value to compound, other results behind:

Row | Number of A3 alleles crossbound (Table 16b, Her2/neu-derived) | Number of A3 alleles crossbound (Table 16c, Mage2/3-derived) | Compound | also measured
8 | – | 3 | CC[C@H](C)[C@H](NC(=O)[C@@H](NC(=O)[C@@H](NC(=O)[C@H](CO)NC(=O)[C@H](Cc1ccccc1)NC(=O)[C@H](CO)NC(=O)[C@@H](N)CO)[C@@H](C)O)[C@@H](C)O)C(=O)N[C@@H](CC(N)=O)C(=O)N[C@@H](CCCCN)C(=O)O [compound 77] | –
9 | – | 3 | CC[C@H](C)[C@H](NC(=O)[C@@H](NC(=O)[C@@H](NC(=O)[C@H](CO)NC(=O)[C@H](Cc1ccccc1)NC(=O)[C@@H](NC(=O)[C@@H](N)CO)C(C)C)[C@@H](C)O)[C@@H](C)O)C(=O)N[C@@H](CC(N)=O)C(=O)N[C@@H](CCCCN)C(=O)O [compound 78] | –
10 | – | 5 | CC[C@H](C)[C@H](NC(=O)[C@@H](NC(=O)[C@@H](NC(=O)[C@H](CO)NC(=O)[C@H](Cc1ccccc1)NC(=O)[C@@H](NC(=O)[C@@H](N)CO)C(C)C)[C@@H](C)O)[C@@H](C)O)C(=O)N[C@@H](CC(N)=O)C(=O)N[C@@H](CCCNC(=N)N)C(=O)O [compound 79] | –
11 | – | 3 | CC[C@H](C)[C@H](NC(=O)[C@@H](NC(=O)[C@@H](NC(=O)[C@@H](N)CO)[C@@H](C)O)[C@@H](C)O)C(=O)N[C@@H](CC(N)=O)C(=O)N[C@@H](Cc1ccc(O)cc1)C(=O)N[C@H](C(=O)N[C@@H](CC(C)C)C(=O)N[C@@H](Cc1c[nH]c2ccccc12)C(=O)N[C@@H](CCCCN)C(=O)O)[C@@H](C)O [compound 81] | –
12 | – | 4 | CC[C@H](C)[C@H](NC(=O)[C@@H](NC(=O)[C@@H](N)[C@@H](C)O)C(C)C)C(=O)N[C@@H](CC(N)=O)C(=O)N[C@@H](Cc1ccc(O)cc1)C(=O)N[C@H](C(=O)N[C@@H](CC(C)C)C(=O)N[C@@H](Cc1c[nH]c2ccccc12)C(=O)N[C@@H](CCCNC(=N)N)C(=O)O)[C@@H](C)O [compound 83] | –
